DT40 TDP1 CPT: growth inhibition of DT40 Tdp1-/-;hTDP1 cells with camptothecin (screen for TDP1 inhibitors); AID 686979; 12% of 420,000 active; Potency, µM (series often up to 46.2 µM), without a hit: top-dose activity change, negative = growth inhibition, most hits filed as inhibitors; chicken DT40 Tdp1-/-;hTDP1 cells + 20 nM CPT, ATP luminescence, 48 h; further: potency means the concentration at half of the fitted maximal effect; on the % scale 0 is the no-effect control and ±100 the full control effect; nearly all actives have a fitted effect of over 55% in size
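Chicken DT40 Tdp1-/- cells complemented with human TDP1, 400 cells/well, exposed to compounds plus 20 nM camptothecin for at least 48 h at 37 C; viability read as ATP content by CellTiter-Glo luminescence.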
TDP1 inh: inhibitors of human tyrosyl-DNA phosphodiesterase TDP1; Q9NUW8; recombinant TDP1, AlphaScreen DNA substrate cleavage; Potency, µM (highest dose often 130 µM), for the others: at the top dose activity change, negative = inhibition, most hits filed as inhibitors; 0.28% of 350,000 active; further: potency means the concentration at half of the fitted maximal effect; on the % scale 0 is the no-effect control and ±100 the full control effect; nearly all actives have a fitted effect of over 40% in size
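Tdp1 1 nM final; 15 min RT w/ cpd; substrate 15 nM, 5 min; beads 10 ug/ml, 10 min; AlphaScreen read. Neg ctrl: no enzyme.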
TDP1 cell noCPT: qHTS for Inhibitors of human tyrosyl-DNA phosphodiesterase 1 (TDP1): qHTS in cells in absence of CPT; Potency, µM (titrated, usually from 46.2 µM), inactives show at the highest dose activity change, negative = growth inhibition, most hits filed as inhibitors; DT40 Tdp1-/- hTDP1 cells, no CPT, ATP luminescence, 48 h; 15% of 420,000 active; further: potency means the concentration at half of the fitted maximal effect; on the % scale 0 is the no-effect control and ±100 the full control effect; nearly all actives have a fitted effect of over 55% in size
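No-CPT arm: Tdp1-/-;hTDP1 DT40 cells (400/well) plus compounds, incubated ≥48 hr at 37 °C. Readout CellTiter-Glo luminescence.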
uPA surface inh: inhibitors of cell surface uPA generation; cell surface uPA generation assay, qHTS; Potency, µM (titrated, usually from 38.3 µM), for the others: top-dose activity change, negative = inhibition, usual class: inhibitors; 0.31% of 330,000 active; AID 540303; active means well fitted inhibition curve with a large enough effect; inconclusive means small, poorly fitted or top-dose-only effect; inactive means no such curve, though single readings can be large or run the other way; tested in mouse RAW 264.7 cells; further: potency means the concentration at half of the fitted maximal effect; on the % scale 0 is the no-effect control and ±100 the full control effect; nearly all actives have a fitted effect of over 55% in size
miR-21 FLuc: miR-21 reporter, rising signal | HeLa miR-21 FLuc reporter, luciferase, 48 h | Potency, µM (highest dose often 38.3 µM), for inactives: at the top dose reporter change, positive = more light | 340,000 tested, under 10 active | AID 2288; active = well fitted rising curve with a large enough effect; inconclusive = small, poorly fitted or top-dose-only effect; inactive = no such curve, though single readings can be large or run the other way;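 further: % of control where 0% means no effect; miR-21 action dims this reporter so a rising signal means less miR-21 action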
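Compounds were titrated across several concentrations (up to approximately 40 uM) and incubated 48 hours with HeLa miR-21-FLuc reporter cells (miR-21 target sequence downstream of FLuc, endogenous miR-21). Readout was firefly luciferase luminescence after lytic detection reagent.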
* = called active by the depositor; ? = inconclusive; nt = no result given; ! = a repeat was not active. Rows were chosen to be rich in hits. Some 16% of all compounds tested hit in one or more screens of this group. Unless noted, the call rests on the fitted dose curve; in most records, active means well fitted curve in the direction sought with a large enough effect; inconclusive means small, poorly fitted or top-dose-only effect, or another doubt; inactive means no such curve, though single readings can be large; an effect the other way counts as inactive or inconclusive.

Letters – A = DT40 TDP1 CPT; B = TDP1 inh; C = TDP1 cell noCPT; D = uPA surface inh; E = miR-21 FLuc
> O=C(O)c1ccc(Cn2cc(Cl)cn2)cc1
  A: 4%	B: 7%	C: -4%	D: 1%	E: -2%

> CC(=O)Nc1sc(C)c(C)c1C(=O)OCC(=O)Nc1cc(S(=O)(=O)N2CCCCC2)ccc1Cl
  A: -10%	B: 3%	C: 0%	D: -7%	E: 1%

> O=C(NC1(C(F)(F)F)N=C(c2ccccc2)NC1=O)c1ccc(Cl)cc1Cl (stereo not drawn)
  A: ?	B: 4%	C: ?	D: -4%	E: -6%

> Cc1ccccc1CN(C)CCS(=O)(=O)c1cc(Cl)ccc1Cl
  A: ?	B: -15%	C: ?	D: -10%	E: 30%

> CCOC(=O)c1ccc(NC(=O)c2cc(C)nc3ccccc23)cc1
  A: 18%	B: nt	C: 4%	D: -1%	E: -2%

> CCOC(=O)CCC(NC(=O)c1ccc(Nc2nc3ccccc3nc2C(=O)OCC)cc1)C(=O)OCC (stereo not drawn)
  A: 10µM*	B: nt	C: 7.3µM*	D: 7%	E: nt

> CCOC(=O)c1c(CCl)nc2ccccc2c1C
  A: ?	B: 6%	C: ?	D: -6%	E: 3%

> CCOC(=O)c1nc(Nc2ccccc2OC)c2ccccc2n1
  A: 12µM*	B: nt	C: 2.6µM*	D: nt	E: 6%

> CCOC(=O)c1nc(Nc2cc(C)cc(C)c2)c2ccccc2n1
  A: 18µM*	B: 4%	C: 21µM*	D: -5%	E: -4%

> CCCCCOC(=O)c1ccc(Nc2nc(C(=O)OCC)nc3ccccc23)cc1
  A: 3.3µM*	B: nt	C: 1.3µM*	D: nt	E: -4%

> CCn1cc(C(=O)N(CCC(C)C)c2c(N)n(Cc3ccccc3)c(=O)[nH]c2=O)c(=O)c2ccc(C)nc21
  A: -5%	B: 6%	C: -24%	D: 9%	E: 0%

> CS(=O)(=O)OCCCNCCCOS(C)(=O)=O
  A: 2%	B: nt	C: -21%	D: nt	E: nt

> CCOC(=O)c1nc(Nc2ccc(OC)cc2)c2ccccc2n1
  A: ?	B: nt	C: 21µM*	D: -2%	E: 1%

> CCOC(=O)c1nc(NCc2cccc(OC)c2)c2ccccc2n1
  A: ?	B: 5%	C: 16µM*	D: 2%	E: 5%

> COc1cccc(CNC(=O)c2cc(C)nc3ccccc23)c1
  A: 0%	B: 9%	C: 1%	D: 0%	E: 3%

Next section; it opens with the two that closed the last part.
Letters – A = DT40 TDP1 CPT; B = TDP1 inh; C = TDP1 cell noCPT; D = uPA surface inh; E = miR-21 FLuc
> CCOC(=O)c1nc(NCc2cccc(OC)c2)c2ccccc2n1
  A: ?	B: 5%	C: 16µM*	D: 2%	E: 5%

> COc1cccc(CNC(=O)c2cc(C)nc3ccccc23)c1
  A: 0%	B: 9%	C: 1%	D: 0%	E: 3%

> COc1cccc(CNC(=O)COC(=O)c2nc(Cl)c(Cl)c(Cl)c2Cl)c1
  A: 0.0082µM*	B: -7%	C: ?	D: -10%	E: nt

> CCOC(=O)c1nc(Nc2ccc(C(=O)OCC(C)C)cc2)c2ccccc2n1
  A: 6.5µM*	B: nt	C: 6.5µM*	D: nt	E: 7%

> COc1ccc(C2CC(=O)c3cc(-c4nc(-c5cccc([N+](=O)[O-])c5)cs4)c(=O)n(-c4cccc(C)c4)c3C2)cc1 (stereo not drawn)
  A: 0%	B: 5%	C: -4%	D: nt	E: -7%

> Cc1ccc(-c2ncns2)cc1
  A: 4%	B: 1%	C: -6%	D: -1%	E: 2%

> Cc1ccc(NC(=S)Nc2ccc(S(=O)(=O)Nc3ncccn3)cc2)c(C)c1
  A: 2%	B: 4%	C: 28%	D: -4%	E: 0%

> c1ccc(CCN2CN=C(Nc3nc4ccccc4s3)NC2)cc1
  A: ?	B: 10%	C: ?	D: 2%	E: -17%

> COc1ccc(C(NC(C)=O)c2ccc3cccnc3c2O)c(OC)c1 (stereo not drawn)
  A: 3.7µM*	B: 8%	C: 2.9µM*	D: -21%	E: 25%

> CC(=O)NC(c1ccc2ccccc2c1)c1ccc2cccnc2c1O (stereo not drawn)
  A: 3.3µM*	B: nt	C: 4.6µM*	D: -9%	E: 26%

> CCOc1cc(C(Nc2cc(C)ccn2)c2ccc3cccnc3c2O)ccc1OC (stereo not drawn)
  A: ?	B: 11%	C: ?	D: nt	E: 23%

> COc1ccc(C(NC(C)=O)c2ccc3cccnc3c2O)cc1OC (stereo not drawn)
  A: 6.3µM*	B: nt	C: 6.3µM*	D: nt	E: nt

> C=CCNC(=O)c1ccccc1NC(=O)c1ccccc1N(C)S(C)(=O)=O
  A: 8%	B: -1%	C: 6%	D: -1%	E: -8%

> CN1CCN(C(=O)C2=C[C@@H](c3csc4ccccc34)C[C@@H](OCCCCO)O2)CC1
  A: -28%	B: 1%	C: -5%	D: 2%	E: -5%

> CC(=O)c1ccc(NC(=O)CSc2nnc(Cn3cnc4ccccc43)o2)cc1
  A: 16%	B: 5%	C: 2%	D: 5%	E: 2%

> COc1ccc(C(=O)CSc2nnc(Cn3cnc4ccccc43)o2)cc1
  A: 8.2µM*	B: 7%	C: 16µM*	D: 0%	E: 24%

> COc1ccc(Cc2nnc(SCC(=O)c3ccc(OC)cc3)o2)cc1
  A: ?	B: 4%	C: ?	D: -8%	E: -3%

Of the compounds above, 2 have a thiophene ring, fused or not:
Letters – A = DT40 TDP1 CPT; B = TDP1 inh; C = TDP1 cell noCPT; D = uPA surface inh; E = miR-21 FLuc
> CC(=O)Nc1sc(C)c(C)c1C(=O)OCC(=O)Nc1cc(S(=O)(=O)N2CCCCC2)ccc1Cl
  A: -10%	B: 3%	C: 0%	D: -7%	E: 1%

> CN1CCN(C(=O)C2=C[C@@H](c3csc4ccccc34)C[C@@H](OCCCCO)O2)CC1
  A: -28%	B: 1%	C: -5%	D: 2%	E: -5%

The listing continues:
Letters – A = DT40 TDP1 CPT; B = TDP1 inh; C = TDP1 cell noCPT; D = uPA surface inh; E = miR-21 FLuc
> COc1ccc(NCc2nnc(SCC(=O)c3ccc(OC)cc3)o2)cc1
  A: ?	B: 7%	C: 16µM*	D: nt	E: -8%

> CC(=O)N1CN(S(=O)(=O)c2ccc(C)cc2)CC1C (stereo not drawn)
  A: -6%	B: 0%	C: 2%	D: 6%	E: -2%

> Cc1nn(S(=O)(=O)c2ccc(F)cc2)c(C)c1S(=O)(=O)N1CCOCC1
  A: -1%	B: 7%	C: 9%	D: 1%	E: 0%

> NS(=O)(=O)c1ccc(CCNCc2cc(Br)ccc2OCc2ccccc2F)cc1
  A: 5.8µM*	B: 3%	C: 4.1µM*	D: -4%	E: 19%

> O=C(COc1ccc(Br)cc1CNCCc1ccccc1)NCc1ccccc1
  A: 12µM*	B: 3%	C: 7.3µM*	D: ?	E: 29%

> NS(=O)(=O)c1ccc(CCNCc2ccccc2OCc2ccc(Cl)cc2)cc1
  A: 23µM*	B: nt	C: ?	D: -10%	E: 12%

> NS(=O)(=O)c1ccc(CCNCc2cc(Cl)ccc2OCc2ccccc2)cc1
  A: ?	B: nt	C: ?	D: -7%	E: 24%

> OCCNCc1cc(Br)ccc1OCc1ccccc1Cl
  A: 21µM*	B: 1%	C: 21µM*	D: -4%	E: 17%

> NC(=O)N/N=C/c1cc(Br)ccc1OCC(=O)NCc1ccccc1
  A: 9%	B: -5%	C: ?	D: 8%	E: 4%

> C=CCN(CC=C)C(=S)Nc1ccccc1
  A: -25%	B: 0%	C: 2%	D: nt	E: -2%

> CCOC(=O)C(Cc1ccnnc1)=NO
  A: -30%	B: nt	C: ?	D: 0%	E: nt

> CC1CCOC2(O1)C(=O)N(CN1CCN(c3cccc(Cl)c3)CC1)c1ccccc12 (stereo not drawn)
  A: -24%	B: 0%	C: ?	D: -3%	E: -2%

> COc1cc(C=O)c(Br)cc1OCC(=O)NCCc1ccccc1
  A: ?	B: 8%	C: 18µM*	D: 1%	E: -7%

> COc1cc(Br)c(CCNC(=O)Cc2ccccc2)cc1OC
  A: -30%	B: 1%	C: -23%	D: -6%	E: -14%

> OCCOCCN1CCN(C(c2ccccc2)c2ccc(Cl)cc2)CC1 (stereo not drawn)
  A: ?	B: 7%	C: ?	D: -20%	E: -4%

> OCCOCCN1CCN(C2=Nc3ccccc3Sc3ccccc32)CC1
  A: 24µM*!	B: 3%	C: 19µM*!	D: -7%	E: 8%

> Cc1ccccc1N=C(N)Nc1ccccc1C
  A: 27µM*!	B: 3%	C: ?	D: -1%	E: nt

> COc1cc(-c2[nH]ncc2CN(C)Cc2nonc2C)cc(OC)c1OC
  A: ?	B: nt	C: 16µM*	D: 7%	E: 1%

> COc1cc(-c2[nH]ncc2CN2CCSCC2)cc(OC)c1OC
  A: ?	B: 7%	C: 15µM*	D: -1%	E: 3%

Assay outcomes: PubChem, National Center for Advancing Translational Sciences (NCATS)
